{
  "sequences": {"note": "Protein sequences, listed by entry. Tags and fused reporters are not part of them. Lines headed by an entry give the natural chain unless they say otherwise; changes in a name come on top.", "UniProt Q8N1Q1": "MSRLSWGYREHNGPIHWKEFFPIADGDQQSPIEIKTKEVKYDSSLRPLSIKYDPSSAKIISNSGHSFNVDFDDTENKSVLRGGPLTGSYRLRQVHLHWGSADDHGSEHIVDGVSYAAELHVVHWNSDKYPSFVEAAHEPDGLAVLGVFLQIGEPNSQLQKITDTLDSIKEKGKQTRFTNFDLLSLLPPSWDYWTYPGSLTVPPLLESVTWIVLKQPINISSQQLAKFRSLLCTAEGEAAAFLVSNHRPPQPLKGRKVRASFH", "UniProt Q9Y2D0": "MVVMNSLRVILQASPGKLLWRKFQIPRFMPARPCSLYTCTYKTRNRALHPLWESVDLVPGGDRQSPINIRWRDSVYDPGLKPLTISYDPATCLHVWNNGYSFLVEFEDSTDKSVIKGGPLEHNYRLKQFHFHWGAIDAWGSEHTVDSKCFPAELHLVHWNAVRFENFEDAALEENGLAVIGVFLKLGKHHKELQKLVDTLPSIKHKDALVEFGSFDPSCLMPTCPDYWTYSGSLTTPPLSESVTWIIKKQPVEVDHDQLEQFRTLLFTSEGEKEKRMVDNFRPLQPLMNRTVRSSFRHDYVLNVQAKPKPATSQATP", "UniProt P43166": "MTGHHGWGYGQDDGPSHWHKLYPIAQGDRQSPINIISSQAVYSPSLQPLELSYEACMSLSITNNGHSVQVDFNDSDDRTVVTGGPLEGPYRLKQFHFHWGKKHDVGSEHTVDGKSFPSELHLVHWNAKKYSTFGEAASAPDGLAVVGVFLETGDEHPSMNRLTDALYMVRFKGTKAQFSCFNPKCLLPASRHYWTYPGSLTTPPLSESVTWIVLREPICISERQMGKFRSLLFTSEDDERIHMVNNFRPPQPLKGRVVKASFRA"},
  "source": "ChEMBL document CHEMBL5036350",
  "about": "“Binding site comparison for coumarin inhibitors and amine/amino acid activators of human carbonic anhydrases” (Eur J Med Chem, 2021)",
  "conditions_in_all_cases": "filed as activator",
  "key": {"[1]": {"molecular_target": "Carbonic anhydrase 2 (Homo sapiens) (UniProt P00918)", "assay": "Activation of human carbonic anhydrase 2 by stopped flow assay"}, "[2]": {"molecular_target": "Carbonic anhydrase 13 (Homo sapiens) (UniProt Q8N1Q1)", "assay": "Activation of human carbonic anhydrase 13 by stopped flow assay"}, "[3]": {"molecular_target": "Carbonic anhydrase 5B, mitochondrial (Homo sapiens) (UniProt Q9Y2D0)", "assay": "Activation of human carbonic anhydrase 5B by stopped flow assay"}, "[4]": {"molecular_target": "Carbonic anhydrase 7 (Homo sapiens) (UniProt P43166)", "assay": "Activation of human carbonic anhydrase 7 by stopped flow assay"}},
  "data": [
    {"compound": "N[C@H](Cc1ccccc1)C(=O)O", "values": [
      {"measurement": "KA", "setting": "[1]", "result": 0.03, "unit": "µM"},
      {"measurement": "KA", "setting": "[2]", "result": 0.05, "unit": "µM"}
    ]},
    {"compound": "N[C@@H](Cc1ccccc1)C(=O)O", "values": [
      {"measurement": "KA", "setting": "[3]", "result": 10, "unit": "µM"},
      {"measurement": "KA", "setting": "[4]", "result": 10, "unit": "µM"},
      {"measurement": "KA", "setting": "[2]", "result": 1, "unit": "µM"}
    ]}
  ]
}
